Measured affinities in a library of Ab-14 heavy chain variants

Binding partner: SARS-CoV-2 spike HR2 peptide, sequence PDVDLGDISGINAS.

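The starting antibody came from a phage panning campaign against this peptide. The variants were designed computationally from a first round of random CDR variants and then made and measured. Several design methods are mixed in this list. In AlphaSeq, yeast of one mating type display the scFv and yeast of the other type display the target. The frequency of each diploid, read from paired DNA barcodes, reflects how well the two displayed proteins bind. Each replicate has its own calibration line, from reference interactions of the BCL2 family. Each pool was mated in six replicate cultures.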

Ab-14 is the parent antibody, in scFv form: VH, then three GGGGS repeats, then VL. The light chain is unchanged in all variants.
VH: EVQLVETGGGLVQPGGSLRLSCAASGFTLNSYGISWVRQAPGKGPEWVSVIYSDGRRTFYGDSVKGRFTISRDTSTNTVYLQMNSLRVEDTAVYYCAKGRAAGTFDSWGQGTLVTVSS
VL: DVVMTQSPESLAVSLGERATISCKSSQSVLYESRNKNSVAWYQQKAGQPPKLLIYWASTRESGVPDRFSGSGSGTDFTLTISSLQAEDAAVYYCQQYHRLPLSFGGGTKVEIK

Variants are written as CDR1, CDR2 and CDR3 of the heavy chain (limits as in the source). Parent: GFTLNSYGIS, VIYSDGRRTFYGDSVK, GRAAGTFDS. Values are apparent Kd, the geometric mean of the replicates that gave a signal; lower means stronger binding. "not detected" means that the variant was in the library but no mating with the target was seen in any replicate; the authors take this as a sign of poor binding, and no number exists. Order: sorted from the lowest average up, undetected variants last. A sequence measured in both rounds can read differently, since the two assays cover different ranges.

{"CDR-H1": "GFDINEYGIS", "CDR-H2": "VIYADGRRTFYTDSVK", "CDR-H3": "GGNAGTFDK", "Kd (apparent)": "230 pM", "seen in": "6/6", "control signals": "0/18"}
{"CDR-H1": "GFDLNEYGIS", "CDR-H2": "VIYADGRRTAYADSVK", "CDR-H3": "GQNAGTFTL", "Kd (apparent)": "290 pM", "seen in": "6/6", "control signals": "0/18"}
{"CDR-H1": "GFDLNEYGIS", "CDR-H2": "VIYADGVRTAYADKVK", "CDR-H3": "GNVAGTFDT", "Kd (apparent)": "510 pM", "seen in": "6/6", "control signals": "1/18"}
{"CDR-H1": "GFDLDEYGIS", "CDR-H2": "VIYADGVRTAYSDSVK", "CDR-H3": "GNNAGTFDL", "Kd (apparent)": "890 pM", "seen in": "6/6", "control signals": "0/18"}
{"CDR-H1": "GFDLNEYGIS", "CDR-H2": "VIYADGMRTFYADDVK", "CDR-H3": "GNVAGTFDT", "Kd (apparent)": "910 pM", "seen in": "6/6", "control signals": "1/18"}
{"CDR-H1": "GFDLNEYGIS", "CDR-H2": "VIYADGRRTFYADSVK", "CDR-H3": "GNVAGTFFM", "Kd (apparent)": "1.2 nM", "seen in": "6/6", "control signals": "1/18"}
{"CDR-H1": "GFWLNSYGIS", "CDR-H2": "VIYSDGRRTFYADSVK", "CDR-H3": "GRVAGTFDS", "Kd (apparent)": "3.3 nM", "seen in": "3/6", "control signals": "0/18"}
{"CDR-H1": "EFNLNSYGIS", "CDR-H2": "VIYSDGRRTFYADSVK", "CDR-H3": "GRTAGTFDS", "Kd (apparent)": "3.6 nM", "seen in": "5/6", "control signals": "0/18"}
{"CDR-H1": "GFSLNTYGIS", "CDR-H2": "VIYSDGRRTFYGDSVK", "CDR-H3": "GRIAGTFDS", "Kd (apparent)": "3.8 nM", "seen in": "6/6", "control signals": "0/18"}
{"CDR-H1": "GFNLQSYGIS", "CDR-H2": "VIYSDGRRTFYGDSVK", "CDR-H3": "GRNAGTFDS", "Kd (apparent)": "5.0 nM", "seen in": "6/6", "control signals": "0/18"}
{"CDR-H1": "GFSLNSYGIS", "CDR-H2": "VIYSDGRRTFYGDRVK", "CDR-H3": "GQAAGTFDT", "Kd (apparent)": "10 nM", "seen in": "6/6", "control signals": "1/18"}
{"CDR-H1": "GFFLNEYGIS", "CDR-H2": "VIYSDGRRTFYGDSVK", "CDR-H3": "GQAAGTFDL", "Kd (apparent)": "12 nM", "seen in": "1/6", "control signals": "0/18"}
{"CDR-H1": "GFTLESYGIS", "CDR-H2": "VIYSDGRRTFYGDSVK", "CDR-H3": "GMAAGTFDL", "Kd (apparent)": "35 nM", "seen in": "5/6", "control signals": "0/18"}
{"CDR-H1": "GFDIDEYGIS", "CDR-H2": "VIYADGFRAVYTNSVK", "CDR-H3": "GHNGMRLTV", "Kd (apparent)": "1.5 µM", "seen in": "1/6", "control signals": "0/18"}
{"CDR-H1": "GFNLDEYGIS", "CDR-H2": "VIYADGIRTAYANKVK", "CDR-H3": "GTNWWISVN", "Kd (apparent)": "9.8 µM", "seen in": "1/6", "control signals": "0/18"}
{"CDR-H1": "GFQLNEYGIS", "CDR-H2": "VIYADGRRTAYADSVK", "CDR-H3": "GAYDLVAVL", "Kd (apparent)": "not detected", "seen in": "0/6", "control signals": "0/18"}
{"CDR-H1": "GFELSEYGIS", "CDR-H2": "VIYADGVRVEYTQSVK", "CDR-H3": "GQLGGHFNV", "Kd (apparent)": "not detected", "seen in": "0/6", "control signals": "0/18"}
{"CDR-H1": "GFDLNSYGIS", "CDR-H2": "VIYSDGRRTFYGDSVK", "CDR-H3": "TRAAGWNNS", "Kd (apparent)": "not detected", "seen in": "0/6", "control signals": "1/18"}
{"CDR-H1": "GFTLMSYGIS", "CDR-H2": "VIYSDGRQTFYDDSVK", "CDR-H3": "GYLAYTWDS", "Kd (apparent)": "not detected", "seen in": "0/6", "control signals": "0/18"}
{"CDR-H1": "GFTLNSYGLS", "CDR-H2": "VIYSDGRRTFYGDSVK", "CDR-H3": "GRAAGTFDS", "Kd (apparent)": "not detected", "seen in": "0/6", "control signals": "0/18"}

For reference, 3 entries of the list once more:

CDR-H1	CDR-H2	CDR-H3	Kd (apparent)	seen in	control signals
GFDINEYGIS	VIYADGRRTFYTDSVK	GGNAGTFDK	230 pM	6/6	0/18
GFFLNEYGIS	VIYSDGRRTFYGDSVK	GQAAGTFDL	12 nM	1/6	0/18
GFTLESYGIS	VIYSDGRRTFYGDSVK	GMAAGTFDL	35 nM	5/6	0/18

The parent sequence was in this pool as ten entries: three were never detected, three once, and four in most replicates, with averages from 2.2 nM to 240 nM. The authors' rule: three or more of the six replicates give a measured affinity, fewer mean a poor binder. Background: pairings of all heavy chain designs with three empty control strains gave a value in 1% of cases (median 120 nM, 5th percentile 7.0 nM). Values in that range, when seen in few replicates, are hard to tell from nonspecific mating. For each scFv, signals with the empty controls are counted beside the result.

The measurements come from Li et al. 2023 (doi:10.1038/s41467-023-39022-2) through the FLAb antibody collection.